This passage reports IC50 results from patent US20250101052A1, “COMPOUND FOR EGFR KINASE INHIBITOR, COMPOSITION, AND USE THEREOF” (INNOVATION INSTITUTE FOR ARTIFICIAL INTELLIGENCE IN …, priority 2021, published 2025).

Protein sequences, listed by entry. Tags and fused reporters are not part of them. Residues count along the entry.
UniProt P00533, 25-1210 T790M/C797S/L858R limits assumed: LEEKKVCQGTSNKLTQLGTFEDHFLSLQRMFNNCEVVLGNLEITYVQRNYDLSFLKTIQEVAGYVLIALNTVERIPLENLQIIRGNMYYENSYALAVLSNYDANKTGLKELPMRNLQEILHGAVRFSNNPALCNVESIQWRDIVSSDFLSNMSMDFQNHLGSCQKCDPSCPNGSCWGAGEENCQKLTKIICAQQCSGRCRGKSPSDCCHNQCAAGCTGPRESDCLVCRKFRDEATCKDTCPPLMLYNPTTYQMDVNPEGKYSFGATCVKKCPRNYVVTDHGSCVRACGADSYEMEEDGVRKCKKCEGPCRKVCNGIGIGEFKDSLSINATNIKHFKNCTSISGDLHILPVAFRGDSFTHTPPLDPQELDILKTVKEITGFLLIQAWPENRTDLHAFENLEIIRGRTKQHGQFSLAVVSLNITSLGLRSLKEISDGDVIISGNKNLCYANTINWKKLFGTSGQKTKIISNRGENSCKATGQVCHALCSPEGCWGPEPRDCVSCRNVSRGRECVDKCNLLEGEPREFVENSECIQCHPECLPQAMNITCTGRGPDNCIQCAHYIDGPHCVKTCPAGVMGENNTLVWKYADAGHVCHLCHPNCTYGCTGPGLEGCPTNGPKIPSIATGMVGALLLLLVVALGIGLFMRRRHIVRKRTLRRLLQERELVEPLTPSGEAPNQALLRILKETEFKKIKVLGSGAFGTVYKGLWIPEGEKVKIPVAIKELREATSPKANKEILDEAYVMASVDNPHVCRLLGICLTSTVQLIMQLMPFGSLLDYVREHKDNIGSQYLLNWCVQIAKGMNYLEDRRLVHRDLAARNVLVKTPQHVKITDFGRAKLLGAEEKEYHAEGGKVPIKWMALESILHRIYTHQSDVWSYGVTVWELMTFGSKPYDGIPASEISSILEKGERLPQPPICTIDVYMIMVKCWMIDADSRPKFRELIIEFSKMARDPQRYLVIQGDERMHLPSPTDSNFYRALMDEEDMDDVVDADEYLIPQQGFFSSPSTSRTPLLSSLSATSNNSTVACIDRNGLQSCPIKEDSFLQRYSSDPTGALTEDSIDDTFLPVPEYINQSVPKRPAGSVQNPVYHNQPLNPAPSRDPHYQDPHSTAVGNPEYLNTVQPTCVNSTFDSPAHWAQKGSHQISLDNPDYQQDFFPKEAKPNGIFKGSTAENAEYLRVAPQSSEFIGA

The target in this experiment is EGFR^L858R/T790M/C797S kinase (Homo sapiens (Human), UniProt P00533, C797S/L858R/T790M). The experiment is described as follows: EGFR^L858R/T790M/C797S kinase inhibitory activity experiment. The settings on record: read-out: EGFR^L858R/T790M/C797S (IC50 NM), in vitro. Here is the method:
EGFRL^858R/T790M/C797S kinase inhibitory activity experiment: The compounds of the present invention have excellent in-vitro inhibitory activity against EGFR^L858R/T790M/C797S kinase
• Centrifuge (manufacturer: Eppendorf, model: 5430) • Microplate reader (manufacturer: Perkin Elmer, model: Caliper EZ ReaderII) • Echo 550 (manufacturer: Labcyte, model: Echo 550) • Experimental Method • Compound preparation: • A 10 mM storage solution was prepared.
(1) 1×Kinase buffer was prepared.
(2) Preparation of concentration gradient of compound: The tested compound has a test concentration starting from 1 μM, diluted 10 times, with 10 concentrations, and subjected to single-well or multi-well detection. The compound was diluted to a 100% DMSO solution with a final concentration of 100 times in a 384 source plate. […]
(10) The conversion rate was read using Caliper EZ Reader.
where Conversion %_sample is the conversion rate reading of the sample; Conversion %_min: the average value of negative control wells, representing the conversion rate reading of wells without enzyme activity; Conversion %_max: the average value of positive control wells, representing the conversion rate reading of wells without compound inhibition; % Inhibition represents the inhibition rate. […]

Take `CCc1cc(Nc2ncc(Cl)c(Nc3ccc(C)c(C)c3P(C)(C)=O)n2)c(OC)cc1N1CC2(CCN(C3CC3)CC2)C1`: the IC50 stood at 670 pM.
